{"source": "PubChem BioAssay (NCI)", "assay_in_all_cases": "growth of human tumour cells (NCI), 48 h", "key": {"SK-MEL-5 melanoma": {"test_system": "SK-MEL-5 melanoma"}, "MDA-N": {"test_system": "MDA-N"}, "MCF7 breast": {"test_system": "MCF7 breast"}, "TK-10 renal": {"test_system": "TK-10 renal"}, "HOP-62 NSCLC": {"test_system": "HOP-62 NSCLC"}, "SR leukemia": {"test_system": "SR leukemia"}, "786-0 renal": {"test_system": "786-0 renal"}, "A549 NSCLC": {"test_system": "A549 NSCLC"}, "UACC-257 melanoma": {"test_system": "UACC-257 melanoma"}, "NCI/ADR-RES ovarian": {"test_system": "NCI/ADR-RES ovarian"}, "NCI-H322M lung": {"test_system": "NCI-H322M lung"}, "OVCAR-3 ovarian": {"test_system": "OVCAR-3 ovarian"}, "ACHN renal": {"test_system": "ACHN renal"}, "U251 CNS": {"test_system": "U251 CNS"}, "A498 renal": {"test_system": "A498 renal"}, "SK-MEL-28 melanoma": {"test_system": "SK-MEL-28 melanoma"}, "KM12 colon": {"test_system": "KM12 colon"}, "T-47D breast": {"test_system": "T-47D breast"}, "BT-549 breast": {"test_system": "BT-549 breast"}, "LOX IMVI melanoma": {"test_system": "LOX IMVI melanoma"}, "SK-OV-3 ovarian": {"test_system": "SK-OV-3 ovarian"}, "SF-295 CNS": {"test_system": "SF-295 CNS"}, "SK-MEL-2 melanoma": {"test_system": "SK-MEL-2 melanoma"}, "HOP-92 NSCLC": {"test_system": "HOP-92 NSCLC"}, "DU-145 prostate": {"test_system": "DU-145 prostate"}, "IGROV1 ovarian": {"test_system": "IGROV1 ovarian"}, "SW-620 colon": {"test_system": "SW-620 colon"}, "NCI-H23 lung": {"test_system": "NCI-H23 lung"}, "NCI-H460 lung": {"test_system": "NCI-H460 lung"}, "OVCAR-5 ovarian": {"test_system": "OVCAR-5 ovarian"}, "SF-268 CNS": {"test_system": "SF-268 CNS"}, "PC-3 prostate": {"test_system": "PC-3 prostate"}, "K-562 leukemia": {"test_system": "K-562 leukemia"}, "UO-31 renal": {"test_system": "UO-31 renal"}, "CAKI-1 renal": {"test_system": "CAKI-1 renal"}, "SNB-19 CNS": {"test_system": "SNB-19 CNS"}, "HT29 colon": {"test_system": "HT29 colon"}, "OVCAR-4 ovarian": {"test_system": "OVCAR-4 ovarian"}, "RPMI-8226 leukemia": {"test_system": "RPMI-8226 leukemia"}, "MDA-MB-435": {"test_system": "MDA-MB-435"}, "HCT-116 colon": {"test_system": "HCT-116 colon"}, "HCT-15 colon": {"test_system": "HCT-15 colon"}, "UACC-62 melanoma": {"test_system": "UACC-62 melanoma"}, "M14 melanoma": {"test_system": "M14 melanoma"}, "MALME-3M melanoma": {"test_system": "MALME-3M melanoma"}, "OVCAR-8 ovarian": {"test_system": "OVCAR-8 ovarian"}, "SNB-75 CNS": {"test_system": "SNB-75 CNS"}, "MDA-MB-231 breast": {"test_system": "MDA-MB-231 breast"}, "SN12C renal": {"test_system": "SN12C renal"}, "MOLT-4 leukemia": {"test_system": "MOLT-4 leukemia"}, "EKVX NSCLC": {"test_system": "EKVX NSCLC"}, "CCRF-CEM leukemia": {"test_system": "CCRF-CEM leukemia"}, "RXF 393 renal": {"test_system": "RXF 393 renal"}, "COLO 205 colon": {"test_system": "COLO 205 colon"}}, "note": "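96-well plates; 48 h exposure; 5 concentrations. Endpoints by linear interpolation between flanking doses. Not reached: highest tested concentration assigned. TGI: total growth inhibition.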", "data": [{"smiles": "CN(C(=O)COc1ccc(Cl)c(Cl)c1)C1CCCC[C@@H]1N1CCCC1", "note": "(some centres undefined)", "values": [{"measurement": "TGI", "setting": "SK-MEL-5 melanoma", "result": 29.2, "unit": "µM"}, {"measurement": "TGI", "setting": "MDA-N", "result": "> 100", "unit": "µM"}, {"measurement": "TGI", "setting": "MCF7 breast", "result": "> 100", "unit": "µM"}, {"measurement": "TGI", "setting": "TK-10 renal", "result": "> 100", "unit": "µM"}, {"measurement": "TGI", "setting": "HOP-62 NSCLC", "result": "> 100", "unit": "µM"}, {"measurement": "TGI", "setting": "SR leukemia", "result": "> 100", "unit": "µM"}, {"measurement": "TGI", "setting": "786-0 renal", "result": "> 100", "unit": "µM"}, {"measurement": "TGI", "setting": "A549 NSCLC", "result": "> 100", "unit": "µM"}, {"measurement": "TGI", "setting": "UACC-257 melanoma", "result": "> 100", "unit": "µM"}, {"measurement": "TGI", "setting": "NCI/ADR-RES ovarian", "result": "> 100", "unit": "µM"}, {"measurement": "TGI", "setting": "NCI-H322M lung", "result": "> 100", "unit": "µM"}, {"measurement": "TGI", "setting": "OVCAR-3 ovarian", "result": "> 100", "unit": "µM"}, {"measurement": "TGI", "setting": "ACHN renal", "result": "> 100", "unit": "µM"}, {"measurement": "TGI", "setting": "U251 CNS", "result": "> 100", "unit": "µM"}, {"measurement": "TGI", "setting": "A498 renal", "result": "> 100", "unit": "µM"}, {"measurement": "TGI", "setting": "SK-MEL-28 melanoma", "result": "> 100", "unit": "µM"}, {"measurement": "TGI", "setting": "KM12 colon", "result": "> 100", "unit": "µM"}, {"measurement": "TGI", "setting": "T-47D breast", "result": "> 100", "unit": "µM"}, {"measurement": "TGI", "setting": "BT-549 breast", "result": "> 100", "unit": "µM"}, {"measurement": "TGI", "setting": "LOX IMVI melanoma", "result": "> 100", "unit": "µM"}, {"measurement": "TGI", "setting": "SK-OV-3 ovarian", "result": "> 100", "unit": "µM"}, {"measurement": "TGI", "setting": "SF-295 CNS", "result": "> 100", "unit": "µM"}, {"measurement": "TGI", "setting": "SK-MEL-2 melanoma", "result": "> 100", "unit": "µM"}, {"measurement": "TGI", "setting": "HOP-92 NSCLC", "result": "> 100", "unit": "µM"}, {"measurement": "TGI", "setting": "DU-145 prostate", "result": "> 100", "unit": "µM"}, {"measurement": "TGI", "setting": "IGROV1 ovarian", "result": "> 100", "unit": "µM"}, {"measurement": "TGI", "setting": "SW-620 colon", "result": "> 100", "unit": "µM"}, {"measurement": "TGI", "setting": "NCI-H23 lung", "result": "> 100", "unit": "µM"}, {"measurement": "TGI", "setting": "NCI-H460 lung", "result": "> 100", "unit": "µM"}, {"measurement": "TGI", "setting": "OVCAR-5 ovarian", "result": "> 100", "unit": "µM"}, {"measurement": "TGI", "setting": "SF-268 CNS", "result": "> 100", "unit": "µM"}, {"measurement": "TGI", "setting": "PC-3 prostate", "result": "> 100", "unit": "µM"}, {"measurement": "TGI", "setting": "K-562 leukemia", "result": "> 100", "unit": "µM"}, {"measurement": "TGI", "setting": "UO-31 renal", "result": "> 100", "unit": "µM"}, {"measurement": "TGI", "setting": "CAKI-1 renal", "result": "> 100", "unit": "µM"}, {"measurement": "TGI", "setting": "SNB-19 CNS", "result": "> 100", "unit": "µM"}, {"measurement": "TGI", "setting": "HT29 colon", "result": "> 100", "unit": "µM"}, {"measurement": "TGI", "setting": "OVCAR-4 ovarian", "result": "> 100", "unit": "µM"}, {"measurement": "TGI", "setting": "RPMI-8226 leukemia", "result": "> 100", "unit": "µM"}, {"measurement": "TGI", "setting": "MDA-MB-435", "result": "> 100", "unit": "µM"}, {"measurement": "TGI", "setting": "HCT-116 colon", "result": "> 100", "unit": "µM"}, {"measurement": "TGI", "setting": "HCT-15 colon", "result": "> 100", "unit": "µM"}, {"measurement": "TGI", "setting": "UACC-62 melanoma", "result": "> 100", "unit": "µM"}, {"measurement": "TGI", "setting": "M14 melanoma", "result": 36.8, "unit": "µM"}, {"measurement": "TGI", "setting": "MALME-3M melanoma", "result": "> 100", "unit": "µM"}, {"measurement": "TGI", "setting": "OVCAR-8 ovarian", "result": "> 100", "unit": "µM"}, {"measurement": "TGI", "setting": "SNB-75 CNS", "result": "> 100", "unit": "µM"}, {"measurement": "TGI", "setting": "MDA-MB-231 breast", "result": "> 100", "unit": "µM"}, {"measurement": "TGI", "setting": "SN12C renal", "result": "> 100", "unit": "µM"}, {"measurement": "TGI", "setting": "MOLT-4 leukemia", "result": "> 100", "unit": "µM"}, {"measurement": "TGI", "setting": "EKVX NSCLC", "result": "> 100", "unit": "µM"}, {"measurement": "TGI", "setting": "CCRF-CEM leukemia", "result": "> 100", "unit": "µM"}, {"measurement": "TGI", "setting": "RXF 393 renal", "result": "> 100", "unit": "µM"}, {"measurement": "TGI", "setting": "COLO 205 colon", "result": "> 100", "unit": "µM"}]}]}
